Measured values: patent US20110256229A1, “RAPID-ACTING PHARMACEUTICAL COMPOSITION” (published 2011)

How the values were obtained:
[1] = Apparent particle density by helium pycnometer; details: n = 3, mean (± s.d.)
[2] = External specific surface area by Friedrich or Blaine permeametry; details: Friedrich or Blaine permeameter, n = 3, mean (± s.d.)

Substance: Dibasic calcium phosphate dihydrate
- Apparent particle density [1]: 2.884 (±0.001) g/cm^3
- External specific surface area [2]: 440 (±3.7) cm^2/g
